Experimental findings from PMC12163725, “Synthesis and functionalization of vinyl sulfonimidamides and their potential as electrophilic warheads” (Chemical Science, 2025) are described below.

This data set is described as follows: Kinetic study of reaction with glutathione (GSH), half-life by 1H NMR (disappearance of vinyl group). The note with it: pH 7.3 buffer/(CD3)2SO.

In the case of `C=CC(=O)N1CCOCC1` [Compound 8, 4-acryloylmorpholine], the “Control experiments (reactivity without GSH)” value is “only GSH-dependent reactivity”.
